Earlier results on one substance are cited in patent publication US8389024B2, “Abscisic acid against cancer” (priority 2005, dated 2013).

For this data set the following is noted: calculated at 30% of acetonitrile (Kelen et al. 2004).

“[S-(Z,E)]-5-(1-Hydroxy-2,6,6-trimethyl-4-oxo-2-cyclohexen-1-yl)-3-methyl-2,4-pentadienoic acid [ABA]”: the “ABA pK value” is listed as 5.82.
